From ChEMBL document CHEMBL1134771, “Synthesis and antimalarial activity of novel medium-sized 1,2,4,5-tetraoxacycloalkanes” (J Med Chem, 2001)

Experiments:
FM3A [1] = assay: in vitro cytotoxicity against mouse mammary tumor in cell culture
FM3A [2] = assay: in vitro cytotoxicity against mouse mammary tumor in cell culture.; format: functional, cell-based
Procedure, shortened: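 Mouse mammary tumor FM3A cells in culture, used as a mammalian cytotoxicity control; EC50 determined.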

Row | Structure (SMILES) | EC50 (FM3A [1]) [µM] | EC50 (FM3A [2]) [µM]
1 | OOC1(OO)CCCCCCCCCCC1 | 44 | –
2 | CCCCC1(CCCC)OOCCCOO1 | – | 56
3 | C1CCC(C2OOCCCOO2)CC1 | – | 19
4 | C1CCCC2(CC1)OOCCCOO2 | – | 32
